The values below come from article PMC6443995.

The target of this assay is Alexa Fluor 488-labeled human amidated neuropeptide Y (human) (UniProt P01303).

Substance “human native transthyretin (TTR) purified from plasma (from UniProt P02766 21-147) (enzyme)” came in with a K M (μM) of the proteolytic cleavage of Alexa Fluor 488-labeled human amidated NPY (1–20 μM), 37 °C, 50 mM Tris/HCl pH 7.5 of 15.9 μM.
As for “pigC/huTTR, human chimeric TTR in which the C-terminal sequence of human TTR was changed to that of Sus scrofa TTR (from UniProt P02766 21-140; P50390 141-150) (enzyme)”, the figure is 12.9 μM.
